Earlier results as cited in US20110104272A1 (DEPOMED, INC., priority 2009, published 2011).

Details: water at 22° C.

## CC(=O)Nc1ccc(O)cc1 [Acetaminophen, N-(4-hydroxyphenyl)acetamine]
  solubility in water: 1000 to 5000 µg/mL
